Earlier results in patent publication US11926624B2, “Synthesis of coelenterazine synthesis intermediate” (INTERNATIONAL PAPER COMPANY, priority 2018, dated 2024).

Biological target: T1, Renilla Luciferase (Renilla reniformis, UniProt P27652)
T1 sequence (P27652 1-311): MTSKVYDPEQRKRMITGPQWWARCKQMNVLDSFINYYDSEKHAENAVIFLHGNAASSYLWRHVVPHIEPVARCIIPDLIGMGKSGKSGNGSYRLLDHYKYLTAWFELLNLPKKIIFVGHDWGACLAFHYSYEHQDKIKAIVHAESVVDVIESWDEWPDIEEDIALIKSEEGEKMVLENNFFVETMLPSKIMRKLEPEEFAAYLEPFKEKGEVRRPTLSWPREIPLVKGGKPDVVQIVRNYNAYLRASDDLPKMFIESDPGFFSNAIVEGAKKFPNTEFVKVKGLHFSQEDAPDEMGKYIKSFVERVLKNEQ
Details: with Renilla Luciferase; luminescent intensity as % initial intensity

Compound: O=c1c(Cc2ccc(O)cc2)nc2c(CC3CCCC3)[nH]c(-c3ccc(O)cc3)cn1-2 [coelenterazine cp]
- Initial Intensity: 135%
